From PubChem
An excerpt weighted towards active compounds, which were near 1.3% of everything screened.
ARNT-TACC3 inh – disruptors of human ARNT/TACC3 interaction | AlphaScreen His-ARNT PAS-B/GST-TACC3 binding, luminescence; TACC3 fragment carries E629A point mutation | Q9Y6A5 | AID 623870 | 390,000 tested, 0.66% active | inhibition, % at 9.99 µM;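 active = mean inhibition of replicates at least 50% and at least half of replicates each reaching 50%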;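 also: 0% = complete ARNT plus TACC3 wells and 100% = ARNT alone without TACC3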
ERAP1 inh – blocks human ERAP1 aminopeptidase activity; 340,000 tested, 0.15% active; inhibition, % at 10.7 µM; recombinant ERAP1, Leu-AMC fluorescence, 60 min;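 active = mean replicate inhibition of at least 30%, or all replicates individually reaching that 30% level; inactive = mean below 30% and not every replicate reaching it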;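 also: 0% = neutral control wells and 100% = L-leucinethiol positive control wells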
UUG fidelity – yeast start codon fidelity modulation; actives 0.13% (n = 350,000); activity score, % at 18.7 µM; S. cerevisiae UUG-firefly luciferase reporter, luminescence/redox ratio;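 active = replicate mean at a twofold rise or more, about +100% in these data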;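 note: firefly luciferase made from a UUG start codon reports start codon fidelity; reporter light over untreated wells divided by growth signal over untreated wells; some hits fall short of that in this replicate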
S100A4 inh HTS – S100A4-myosin IIA interaction inhibition; P26447; S100A4/TAMRA-MyoIIA peptide fluorescence polarization; inhibition, % at 10.7 µM; 360,000 tested, 0.14% active;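 active = mean inhibition of at least 70% across replicates, with every replicate also reaching that level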
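Compound dosing: one dose per compound; test system: human S100A4 monomer with TAMRA-labelled myosin IIA peptide; probe or stimulus: TAMRA-labelled myosin IIA heavy-chain peptide probe, 5 nM; medium: HEPES buffer with Ca2+, pH 7.2; schedule: 5 min incubation before reading; benchmarks: neutral control DMSO, positive control TFP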
MLL AF4-AF9 inh – inhibitors of human MLL-AF4/AF9 interaction. P42568. AlphaScreen, biotin-AF4 peptide binding to FLAG-AF9. inhibition, % at 10 µM. 350,000 tested, 0.47% active. AID 651704;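 active = every replicate reaching a set inhibition limit, whatever the replicate mean, cut at about 25% in these data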;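 also: 0% = plate neutral control median and 100% = total signal loss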
E-sel inducer – induces E-selectin expression in human endothelial cells | P16581 | AID 686992 | activation, % at 7.58 µM | 260,000 tested, 0.37% active | HUVEC E-selectin immunofluorescence imaging; normalized: neutral wells 0, TNF-alpha wells 100;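 active = mean E-selectin-positive cell signal at least 10% of the positive control, reached in at least 60% of replicates, without over 20% cell loss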
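System: HUVEC / Compound: single concentration / Signal: immunofluorescence imaging / Read-out: percent E-selectin-positive cells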
Numbers without * were called inactive; . = no result.

Labels used below – A = ARNT-TACC3 inh; B = ERAP1 inh; C = UUG fidelity; D = S100A4 inh HTS; E = MLL AF4-AF9 inh; F = E-sel inducer
mol: O=C(C[C@H]1CC[C@@H](NS(=O)(=O)c2ccc(F)cc2)[C@H](CO)O1)NC1CCC1
  A: 30*	B: -1	C: 0	D: 7	E: -1	F: 0
mol: O=C(C[C@H]1CC[C@H](NS(=O)(=O)c2ccc(F)cc2)[C@@H](CO)O1)NC1CCC1
  A: -3	B: -2	C: -8	D: -3	E: -2	F: 0
mol: CCNC(=O)C[C@@H]1CC[C@@H](NS(=O)(=O)c2ccc(F)cc2)[C@H](CO)O1
  A: -5	B: -1	C: -10	D: 96*	E: 0	F: 0
mol: CO[C@@H]1CN(C)C(=O)c2cc(NC(=O)Nc3ccc(C(F)(F)F)cc3)ccc2OC[C@@H](C)NC[C@@H]1C
  A: 2	B: 4	C: .	D: -14	E: 13	F: 0
mol: COc1ccc(NC(=O)N2CC(=O)N3[C@H](CO)[C@H](c4ccc(C5=CCCC5)cc4)[C@H]3C2)cc1
  A: .	B: 4	C: .	D: -10	E: 3	F: 0
mol: CS(=O)(=O)Nc1cccc(-c2cn3c(n2)SCC3)c1
  A: 0	B: 26	C: -9	D: -1	E: -3	F: .
mol: O=S(=O)(Nc1cccc(-c2cn3c(n2)SCC3)c1)c1ccccc1
  A: 2	B: 46*	C: -14	D: -6	E: 5	F: .
mol: O=C(C[C@H]1CC[C@H](NC(=O)Nc2cccc(F)c2)[C@H](CO)O1)NCC1CC1
  A: -7	B: 0	C: -1	D: 7	E: -4	F: 0
mol: C=C(C)C(=O)Oc1ccc(N=Nc2ccc(C)cc2)ccc1=O
  A: .	B: 1	C: -28	D: -8	E: 28*	F: .
mol: C[C@H]1CN([C@@H](C)CO)C(=O)c2cc(C3=CCCC3)cnc2O[C@H]1CN(C)C
  A: 2	B: 0	C: -9	D: 1	E: -2	F: 0
mol: N#Cc1nc(COc2ccccc2Cl)oc1N1CCCC1
  A: 33	B: -4	C: .	D: 1	E: 26*	F: 0
mol: C[C@H]1CN([C@@H](C)CO)C(=O)Cc2cc(NC(=O)Nc3ccccc3)ccc2O[C@H]1CN(C)C
  A: 2	B: -7	C: -2	D: -7	E: -2	F: 42*
mol: C[C@@H]1CN([C@H](C)CO)C(=O)Cc2cc(NC(=O)CCCN(C)C)ccc2O[C@H]1CN(C)C
  A: 23	B: 1	C: 4	D: 1	E: -6	F: 1
mol: C[C@H](CO)N1C[C@H](C)[C@H](CN(C)C)Oc2ccc(NC(=O)Nc3ccccc3)cc2CC1=O
  A: -5	B: -1	C: 6	D: -8	E: 5	F: 273*
mol: C[C@H](CO)N1C[C@H](C)[C@@H](CN(C)C)Oc2ccc(NC(=O)CCCN(C)C)cc2CC1=O
  A: 0	B: -3	C: 1	D: 3	E: 1	F: 204*

Next part
| mol | ARNT-TACC3 inh | ERAP1 inh | UUG fidelity | S100A4 inh HTS | MLL AF4-AF9 inh | E-sel inducer |
| --- | --- | --- | --- | --- | --- | --- |
| C[C@@H]1CN([C@H](C)CO)C(=O)Cc2cc(NC(=O)CCC(F)(F)F)ccc2O[C@@H]1CN(C)S(C)(=O)=O | . | . | . | . | . | 39* |
| COc1ccc(NC(=O)Nc2ccc3c(c2)C(=O)N(C)C[C@H](OC)[C@@H](C)CN[C@@H](C)CO3)cc1 | 6 | . | . | . | . | 0 |
| Cc1ccc2c(c1)C(c1ccncc1)=NNC(c1ccccc1)=N2 | -6 | 2 | -21 | -1 | 0 | . |
| c1ccc(C2=Nc3c(ccc4ccccc34)C(c3ccncc3)=NN2)cc1 | 14 | 0 | . | -7 | 34* | 0 |
| O=C1NN(c2ccccc2)C(=O)/C1=C\c1ccccc1 | 8.4* | -3 | -11 | 1 | 2 | . |
| COc1ccc(OC)c(N/C(=N/c2nc(C)cc(C)n2)NC(C)=O)c1 | -2 | 1 | . | -4 | 27* | 6 |
| CC1CCN(c2nc3c(N)ncnc3n2[C@@H]2O[C@H](CO)[C@@H](O)[C@H]2O)CC1 | -1 | -1 | -5 | 0 | 0 | 0 |
| CC1CCN(c2nc3c(=O)[nH]c(N)nc3n2[C@@H]2O[C@H](CO)[C@@H](O)[C@H]2O)CC1 | -2 | 0 | -13 | -11 | -2 | 69* |
| C[C@@H]1CCCCO[C@H](CN(C)C(=O)Nc2ccc3c(c2)OCO3)[C@@H](C)CN([C@H](C)CO)C(=O)c2cc(NC(=O)C3CCCCC3)ccc2O1 | 2 | 1 | 2 | 2 | 1 | 0 |
| O=C(C[C@@H]1CC[C@@H]2[C@H](COC[C@H](O)CN2C(=O)C2CCOCC2)O1)NCc1ccncc1 | 1 | -1 | -13 | 6 | -2 | 0 |
| C=CCNC(=S)NNC(=O)c1cccn(Cc2cccc(Cl)c2)c1=O | . | . | -12 | . | . | . |
| C=CCNC(=S)NNC(=O)c1cccn(Cc2ccc(Cl)cc2)c1=O | 52* | -1 | -28 | -15 | . | . |

Filtered by structure, the compounds so far with an aryl methoxy group
| mol | ARNT-TACC3 inh | ERAP1 inh | UUG fidelity | S100A4 inh HTS | MLL AF4-AF9 inh | E-sel inducer |
| --- | --- | --- | --- | --- | --- | --- |
| COc1ccc(NC(=O)N2CC(=O)N3[C@H](CO)[C@H](c4ccc(C5=CCCC5)cc4)[C@H]3C2)cc1 | . | 4 | . | -10 | 3 | 0 |
| COc1ccc(NC(=O)Nc2ccc3c(c2)C(=O)N(C)C[C@H](OC)[C@@H](C)CN[C@@H](C)CO3)cc1 | 6 | . | . | . | . | 0 |
| COc1ccc(OC)c(N/C(=N/c2nc(C)cc(C)n2)NC(C)=O)c1 | -2 | 1 | . | -4 | 27* | 6 |
